Measured values taken from ChEMBL document CHEMBL5500338, “Design, synthesis, and biological evaluation of piperazine derivatives as pan-PPARs agonists for the treatment of liver fibrosis” (Eur J Med Chem, 2024).

Sequences of proteins named here, by UniProt entry; tags and fusion partners are left off.
UniProt P10826, whole entry: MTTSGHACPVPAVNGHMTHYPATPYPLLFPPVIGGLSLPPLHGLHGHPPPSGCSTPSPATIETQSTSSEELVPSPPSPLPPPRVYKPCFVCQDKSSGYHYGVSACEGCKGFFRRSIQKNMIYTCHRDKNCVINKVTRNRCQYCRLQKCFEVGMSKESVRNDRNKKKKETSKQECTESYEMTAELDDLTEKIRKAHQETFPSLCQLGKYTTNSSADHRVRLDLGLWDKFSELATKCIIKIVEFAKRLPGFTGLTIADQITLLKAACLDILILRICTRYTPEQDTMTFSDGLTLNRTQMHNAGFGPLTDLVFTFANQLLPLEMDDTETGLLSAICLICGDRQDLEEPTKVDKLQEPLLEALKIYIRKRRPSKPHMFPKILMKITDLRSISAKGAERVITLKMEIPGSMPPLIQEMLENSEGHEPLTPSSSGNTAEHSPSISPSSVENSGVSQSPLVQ
UniProt P13631, whole entry: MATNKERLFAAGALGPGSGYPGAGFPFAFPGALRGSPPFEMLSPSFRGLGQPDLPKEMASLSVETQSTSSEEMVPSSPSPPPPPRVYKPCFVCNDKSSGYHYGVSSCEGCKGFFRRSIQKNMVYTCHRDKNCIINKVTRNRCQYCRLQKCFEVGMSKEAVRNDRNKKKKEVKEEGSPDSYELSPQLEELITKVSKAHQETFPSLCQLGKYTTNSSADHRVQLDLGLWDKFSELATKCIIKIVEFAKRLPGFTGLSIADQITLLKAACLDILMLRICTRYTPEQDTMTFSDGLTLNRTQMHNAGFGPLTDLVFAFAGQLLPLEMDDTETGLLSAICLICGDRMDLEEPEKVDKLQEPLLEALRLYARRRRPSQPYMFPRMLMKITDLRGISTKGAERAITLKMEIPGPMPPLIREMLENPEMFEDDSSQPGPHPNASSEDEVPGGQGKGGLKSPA

Legend:
Format in all cases: cell-based
Conditions in all cases: dose 1-10 µM
[1] = target: Retinoic acid receptor beta (Homo sapiens) (UniProt P10826); assay: Agonist activity at RARbeta (unknown origin) transfected in African green monkey COS-7 cells co-transfected with LBD-GAL4 assessed as receptor transactivation at 1 to 10 uM incubated for 16 hrs by luciferase reporter gene assay
[2] = target: T1, Vitamin D3 receptor (Homo sapiens) (UniProt P11473); assay: Inhibition of VDR (unknown origin) transfected in African green monkey COS-7 cells co-transfected with LBD-GAL4 assessed as receptor transactivation at 1 to 10 uM incubated for 16 hrs by luciferase reporter gene assay
T1 sequence (whole entry): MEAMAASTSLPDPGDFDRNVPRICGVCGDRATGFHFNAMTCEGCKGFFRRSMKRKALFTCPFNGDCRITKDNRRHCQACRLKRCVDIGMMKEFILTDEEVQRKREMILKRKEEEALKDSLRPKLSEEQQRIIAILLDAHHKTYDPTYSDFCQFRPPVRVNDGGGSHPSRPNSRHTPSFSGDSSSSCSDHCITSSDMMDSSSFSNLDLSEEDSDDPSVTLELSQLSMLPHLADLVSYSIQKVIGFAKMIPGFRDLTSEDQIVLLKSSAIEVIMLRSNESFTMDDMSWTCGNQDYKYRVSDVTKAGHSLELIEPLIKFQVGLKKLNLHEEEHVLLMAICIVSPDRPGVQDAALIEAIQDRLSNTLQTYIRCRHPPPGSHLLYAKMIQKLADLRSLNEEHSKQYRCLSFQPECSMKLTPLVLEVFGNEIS

[3] = target: T1, Vitamin D3 receptor (Homo sapiens); assay: Agonist activity at VDR (unknown origin) transfected in African green monkey COS-7 cells co-transfected with LBD-GAL4 assessed as receptor transactivation at 1 to 10 uM incubated for 16 hrs by luciferase reporter gene assay
[4] = target: Retinoic acid receptor gamma (Homo sapiens) (UniProt P13631); assay: Inhibition of RARgamma (unknown origin) transfected in African green monkey COS-7 cells co-transfected with LBD-GAL4 assessed as receptor transactivation at 1 to 10 uM incubated for 16 hrs by luciferase reporter gene assay
[5] = target: Retinoic acid receptor beta (Homo sapiens) (UniProt P10826); assay: Inhibition of RARbeta (unknown origin) transfected in African green monkey COS-7 cells co-transfected with LBD-GAL4 assessed as receptor transactivation at 1 to 10 uM incubated for 16 hrs by luciferase reporter gene assay
[6] = target: Retinoic acid receptor gamma (Homo sapiens) (UniProt P13631); assay: Agonist activity at RARgamma (unknown origin) transfected in African green monkey COS-7 cells co-transfected with LBD-GAL4 assessed as receptor transactivation at 1 to 10 uM incubated for 16 hrs by luciferase reporter gene assay

Cc1cc(CN2CCN(c3ccc(C(F)(F)F)cn3)CC2)cc(C)c1OC(C)(C)C(=O)O
inactive: Activity [1] | inhibition [2] | Activity [3] | inhibition [4] | inhibition [5] | Activity [6]

Activity calls are given as the source filed them.
